Values quoted from earlier work in US5688981A, “Ethylenediaminetriacetic acid and N-acyl ethylenediaminetriacetic acid silver chelating agents and surfactants” (Hampshire Chemical Corp., priority 1996, dated 1997).
Some compounds may have been tested in ways that are not shown here.

Key:
protein = conditions: background, other germicidal silver compounds
[1] = background

silver picrate
concentration with propensity towards protein precipitation (protein): 10^-4 M
astringency [1]: astringent
